# From PubChem
# Compounds with a hit are over-represented: about 2.2% of the library has one in this group of screens.
# S100A4 MyoIIA: inhibitors of human S100A4 binding to myosin IIA peptide; P26447; hit rate 0.14% among 360,000; S100A4/TAMRA-MyoIIA peptide fluorescence polarization; AID 652163; inhibition, % at 10.7 µM;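 active = mean inhibition of at least 70% across replicates, with every replicate also reaching that level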
#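 Test system: S100A4 monomer protein. Medium: HEPES buffer with Ca2+, pH 7.2. Reagent: fluorescent myosin IIA peptide, 5 nM. Compound dosing: single-point compound testing. Timing: 5 min between mix addition and reading. Benchmarks: DMSO neutral and TFP positive wells.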
# FGF22 binding-1: shifts melting point of recombinant human FGF22; recombinant FGF22 thermal shift, SYPRO orange fluorescence; percent of sucrose octasulfate shift, DMSO zero; hit rate 1.5% among 340,000; AID 651658; activity (Tm shift, normalised), % at 9.99 µM; Q9HCT0;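 active = mean Tm shift, scaled 0 neutral to 100 positive control, at about 1.3% or above, every replicate too, limit read from the data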
# SIRT5 inh: inhibitors of human sirtuin-5 desuccinylase; hit rate 1.1% among 330,000; Q9NXA8; Purified SirT5, succinyl-peptide AMC, trypsin-coupled fluorescence; inhibition, % at 15 µM; in the data active = inhibition above about 15%
# ERp5 block: ERp5 (human) disulfide isomerase inhibition; ERp5 insulin aggregation, absorbance 650 nm, 90 min; inhibition, % at 9.99 µM; hit rate 0.05% among 350,000; Q15084;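 active = mean replicate inhibition above about 25%, with every replicate also reaching it, limit read from the data, passing the limit was not always enough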
# PDI inh: PDI (human) enzyme inhibition; P07237; PDI insulin aggregation turbidity, A650, 90 min; inhibition, % at 10 µM; hit rate 0.052% among 350,000;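 active = mean inhibition across replicates of 30% or more, whatever share of single replicates reach that level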
# Yeast UUG start: alters start codon recognition fidelity in yeast | S. cerevisiae UUG-firefly luciferase reporter, luminescence/redox ratio | activity score, % at 18.7 µM | hit rate 0.13% among 350,000 | AID 602363;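 active means replicate mean at a twofold rise or more, about +100% in these data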;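 further: firefly luciferase made from a UUG start codon reports start codon fidelity; reporter light over untreated wells divided by growth signal over untreated wells; some hits fall short of that in this replicate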
# FGF22 binding-2: binders of human FGF22 by thermal shift; thermal shift activity, °C (ΔTm) at 38 µM; recombinant FGF22 thermal shift, SYPRO orange fluorescence; hit rate 2% among 1,000; shares compounds with FGF22 binding-1; AID 720646;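 active = fitted rise in melting shift crosses a set limit at or below the top valid dose tested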
# SYPRO no-protein: compound-only SYPRO artifact for FGF22 binders. compound-only SYPRO orange thermal shift counter-screen, no protein. shares compounds with FGF22 binding-1. AC50, µM (top dose mostly 38 µM). hit rate 2% among 1,000;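 active = rising signal whose fitted curve reaches the 0.54 level within the top valid dose, showing a melting point, actives reach about 13 µM in these data; inactive = the rest, including activity in the opposite direction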; also: value is where the raw curve crosses a fixed level and not half-maximal
# An asterisk follows results filed as active; i = inactive; nt = no result given; [ ] = remark or other dose.
SMILES,S100A4 MyoIIA,FGF22 binding-1,SIRT5 inh,ERp5 block,PDI inh,Yeast UUG start,FGF22 binding-2,SYPRO no-protein
O=C(C[C@H]1C=C[C@H](NC(=O)c2ccc(F)cc2)[C@@H](CO)O1)NCCc1ccncc1,-2,0,1,0,nt,-16,nt,nt
Cc1ccc(F)cc1C(=O)N1CCC1(C)C(=O)O (stereo not drawn),-2,0,-4,6,-1,5,nt,nt
CC1(C(=O)O)CCN1C(=O)c1ccccc1F (stereo not drawn),-1,22*,nt,1,0,-8,0.12,i
CO[C@@H]1CN(C)C(=O)c2ccc(NC(=O)Nc3ccc4c(c3)OCO4)cc2OC[C@H](C)NC[C@H]1C,17,1,-1,2,nt,nt,nt,nt
CC(C)NC(=O)Nc1ccc2c(c1)C(=O)N([C@@H](C)CO)C[C@@H](C)[C@H](CN(C)C(=O)CCC(F)(F)F)OCCCC[C@H](C)O2,-7,0,3,2,nt,nt,nt,nt
COc1ccc(CN(C)C[C@@H]2Oc3ccc(NC(=O)Cc4ccccc4)cc3C(=O)N([C@@H](C)CO)C[C@H]2C)cc1,27,0,3,1,nt,nt,nt,nt
COc1ccc(CN(C)C[C@H]2Oc3ccc(NC(=O)Cc4ccccc4)cc3C(=O)N([C@@H](C)CO)C[C@H]2C)cc1,6,8.9*,3,-3,nt,nt,0.064,i
C[C@H]1CN([C@@H](C)CO)C(=O)c2cc(NC(=O)Cc3ccccc3)ccc2O[C@H]1CN(C)Cc1ccc2c(c1)OCO2,-1,3.0*,2,3,nt,nt,0.23,i
C[C@@H]1CN([C@H](C)CO)C(=O)c2cc(NC(=O)Cc3cn(C)c4ccccc34)ccc2O[C@@H]1CN(C)S(C)(=O)=O,-7,0,-3,-1,nt,15,nt,nt
C[C@@H]1CN([C@@H](C)CO)C(=O)c2cc(NC(=O)Cc3cn(C)c4ccccc34)ccc2O[C@H]1CN(C)S(C)(=O)=O,-8,2.6*,2,0,nt,13,0.11[42 µM],i
O=C(Nc1ccc(F)cc1)N1CC(=O)N2[C@@H](CO)[C@H](c3ccc(-c4ccc(F)cc4)cc3)[C@@H]2C1,-4,nt,0,-2,nt,nt,nt,nt
O=C(Cc1ccccn1)N[C@H]1CC[C@H](CC(=O)N2CCCCC2)O[C@@H]1CO,2,1,4,-4,nt,-8,nt,nt
O=C(COc1cccc(Cl)c1)NCC(c1cccs1)N1CCOCC1 (stereo not drawn),-11,1.6*,5,0,-6,4,-0.063,i

# As entered above.
# O=C(Nc1ccc(F)cc1)N1CC(=O)N2[C@@H](CO)[C@H](c3ccc(-c4ccc(F)cc4)cc3)[C@@H]2C1 @ SIRT5 inh = 0
# Cc1ccc(F)cc1C(=O)N1CCC1(C)C(=O)O (stereo not drawn) @ S100A4 MyoIIA = -2
